# Literature values, collected in publication PMC4479448, “Delivery of Topically Applied Calpain Inhibitory Peptide to the Posterior Segment of the Rat Eye” (PLoS ONE, 2015).
# Settings: topically applied; cited from earlier work
substance,measurement,value
insulin,time of peak level in the optic nerve after instillation,20 min
same,time of peak level in the retina after instillation,1 h
